Laboratory results as given in PubChem BioAssay (NCI).
Some results for these compounds are left out of this collection, so the calls shown say nothing about other tests.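 48-hour exposure; five concentrations; linearly interpolated endpoints. Abbreviation: GI50, concentration required for 50% inhibition of growth.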

How the values were obtained:
Assay in all cases: NCI anticancer screen, dose series, 48 h; in the data active = GI50 below about 0.43 µM; inactive = the rest
786-0 renal = system: 786-0 renal
A549 NSCLC = system: A549 NSCLC
ACHN renal = system: ACHN renal
BT-549 breast = system: BT-549 breast
CAKI-1 renal = system: CAKI-1 renal
CCRF-CEM leukemia = system: CCRF-CEM leukemia
COLO 205 colon = system: COLO 205 colon
DU-145 prostate = system: DU-145 prostate
EKVX NSCLC = system: EKVX NSCLC
HCC-2998 colon = system: HCC-2998 colon
HCT-116 colon = system: HCT-116 colon
HCT-15 colon = system: HCT-15 colon
HL-60(TB) leukemia = system: HL-60(TB) leukemia
HOP-62 NSCLC = system: HOP-62 NSCLC
HT29 colon = system: HT29 colon
IGROV1 ovarian = system: IGROV1 ovarian
K-562 leukemia = system: K-562 leukemia
KM12 colon = system: KM12 colon
LOX IMVI melanoma = system: LOX IMVI melanoma
M14 melanoma = system: M14 melanoma
MALME-3M melanoma = system: MALME-3M melanoma
MCF7 breast = system: MCF7 breast
MDA-MB-231 breast = system: MDA-MB-231 breast
MDA-MB-435 = system: MDA-MB-435
MDA-N = system: MDA-N
MOLT-4 leukemia = system: MOLT-4 leukemia
NCI-H226 lung = system: NCI-H226 lung
NCI-H23 lung = system: NCI-H23 lung
NCI-H522 lung = system: NCI-H522 lung
NCI/ADR-RES ovarian = system: NCI/ADR-RES ovarian
OVCAR-3 ovarian = system: OVCAR-3 ovarian
OVCAR-5 ovarian = system: OVCAR-5 ovarian
OVCAR-8 ovarian = system: OVCAR-8 ovarian
PC-3 prostate = system: PC-3 prostate
RPMI-8226 leukemia = system: RPMI-8226 leukemia
RXF 393 renal = system: RXF 393 renal
SF-268 CNS = system: SF-268 CNS
SF-295 CNS = system: SF-295 CNS
SF-539 CNS = system: SF-539 CNS
SK-MEL-28 melanoma = system: SK-MEL-28 melanoma
SK-MEL-5 melanoma = system: SK-MEL-5 melanoma
SK-OV-3 ovarian = system: SK-OV-3 ovarian
SN12C renal = system: SN12C renal
SNB-19 CNS = system: SNB-19 CNS
SNB-75 CNS = system: SNB-75 CNS
SR leukemia = system: SR leukemia
SW-620 colon = system: SW-620 colon
T-47D breast = system: T-47D breast
TK-10 renal = system: TK-10 renal
U251 CNS = system: U251 CNS
UACC-257 melanoma = system: UACC-257 melanoma
UACC-62 melanoma = system: UACC-62 melanoma
UO-31 renal = system: UO-31 renal

Measured: GI50

CN1CCC=C(COC(=O)C(O)(c2ccccc2)C2CCCC2)C1 (stereo not drawn)
inactive: 786-0 renal > 100 µM | A549 NSCLC > 100 µM | ACHN renal > 100 µM | BT-549 breast 30.1 µM | CAKI-1 renal > 100 µM | CCRF-CEM leukemia > 100 µM | COLO 205 colon > 100 µM | DU-145 prostate > 100 µM | EKVX NSCLC > 100 µM | HCC-2998 colon 41.1 µM | HCT-116 colon > 100 µM | HCT-15 colon > 100 µM | HL-60(TB) leukemia > 100 µM | HOP-62 NSCLC > 100 µM | HT29 colon 46.8 µM | IGROV1 ovarian > 100 µM | K-562 leukemia 38.1 µM | KM12 colon > 100 µM | LOX IMVI melanoma > 100 µM | M14 melanoma 71 µM | MALME-3M melanoma 71.9 µM | MCF7 breast > 100 µM | MDA-MB-231 breast > 100 µM | MDA-MB-435 = > 100 µM | MDA-N > 100 µM | MOLT-4 leukemia 53.4 µM | NCI-H226 lung > 100 µM | NCI-H23 lung > 100 µM | NCI-H522 lung > 100 µM | NCI/ADR-RES ovarian > 100 µM | OVCAR-3 ovarian > 100 µM | OVCAR-5 ovarian > 100 µM | OVCAR-8 ovarian > 100 µM | PC-3 prostate > 100 µM | RPMI-8226 leukemia > 100 µM | RXF 393 renal > 100 µM | SF-268 CNS > 100 µM | SF-295 CNS > 100 µM | SF-539 CNS 78.7 µM | SK-MEL-28 melanoma > 100 µM | SK-MEL-5 melanoma 87.1 µM | SK-OV-3 ovarian > 100 µM | SN12C renal > 100 µM | SNB-19 CNS > 100 µM | SNB-75 CNS > 100 µM | SR leukemia 94.8 µM | SW-620 colon > 100 µM | T-47D breast > 100 µM | TK-10 renal > 100 µM | U251 CNS > 100 µM | UACC-257 melanoma 31.7 µM | UACC-62 melanoma > 100 µM | UO-31 renal 29.3 µM
